According to publication PMC5045942, “Evaluation of a novel PXR‐knockout in HepaRG™ cells” (Pharmacology Research & Perspectives, 2016):

System: CYP3A4 mRNA
Assay: CYP3A4 mRNA induction in 5F HepaRG control cells (real-time PCR)
Details: read-out: EC50, induction of CYP3A4 mRNA, 5F; 5F cells; 48 h; value of each individual experiment (two per cell)

- EC50: 42.1 µM
Structure (SMILES): NC(=O)N1c2ccccc2C=Cc2ccccc21 [Carbamazepine, carbamazepine]
